Here are results for 1 molecule from PubChem BioAssay AID1222 (Sanford-Burnham Center for Chemical Genomics, 2008).

The entries are a selection whose mix differs from that of the whole data set. Entries with a potency or affinity are not part of this list. The source made the active and inactive calls.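 Rule for the calls: active = EC50 below 50 µM in the dose-response confirmation; inactive = the rest.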

This test is described as follows: protection against thapsigargin-triggered cell killing – 384-well, CSM14.1, ATP luminescence, primary screen (AID 1222).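 Note: death triggered by thapsigargin at about 15 µM added after 2 h compound pretreatment; cell ATP read after overnight thapsigargin exposure of roughly 18 to 22 hours; reference of the scale not given here.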 The following applies: CSM14.1 thapsigargin-induced death rescue, at 20 µM, active compounds read high.
With `COP1(=S)c2c(C)nn(CCC#N)c2N=C(c2ccc(F)cc2)N1C` (stereo unspecified), the cellular ATP content (survival) was inactive: -2.4%.
